Target: 5-hydroxytryptamine receptor 1A (Rattus norvegicus, UniProt P19327)
Test: Binding affinity towards 5-hydroxytryptamine 1A receptor of rat hippocampus using [3H]-8-hydroxy-2-(di-n-propylamine) tetralin (8-OH-DPAT) as a radioligand
Type: tissue-based
Outline: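 Rat hippocampal homogenate (6 mg) incubated with 0.1 nM [3H]-8-OH-DPAT; nonspecific binding defined with 10 μM 8-OH-DPAT.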

Protein sequences, listed by entry. Tags and fused reporters are not part of them.
UniProt P19327, whole entry: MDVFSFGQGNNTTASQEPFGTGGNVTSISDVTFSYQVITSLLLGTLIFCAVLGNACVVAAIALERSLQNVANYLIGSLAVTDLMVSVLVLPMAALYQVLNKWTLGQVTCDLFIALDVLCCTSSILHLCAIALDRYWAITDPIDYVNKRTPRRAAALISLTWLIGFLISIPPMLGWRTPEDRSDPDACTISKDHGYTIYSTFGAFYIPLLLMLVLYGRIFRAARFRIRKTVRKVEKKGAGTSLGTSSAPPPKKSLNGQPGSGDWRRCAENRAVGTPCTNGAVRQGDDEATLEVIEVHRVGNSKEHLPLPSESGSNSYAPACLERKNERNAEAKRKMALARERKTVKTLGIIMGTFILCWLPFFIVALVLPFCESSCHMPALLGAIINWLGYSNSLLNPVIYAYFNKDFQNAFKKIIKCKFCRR

Ki: 12 nM
SMILES: COc1ccccc1N1CCN(CCCCNC(=O)CCCc2ccccc2)CC1

— ChEMBL document CHEMBL1125192, “Analogues of the 5-HT1A serotonin antagonist 1-(2-methoxyphenyl)-4-[4-(2-phthalimido)butyl]piperazine with reduced alpha 1-adrenergic affinity” (J Med Chem, 1991)
